Results: US20080021015A1, “Use as medicine of a compound restoring active principles in vivo” (DOSPHARMA, priority 2000, published 2008)

Experiments:
[1] = tested on: rat hepatocyte culture; conditions: over 24 hours
[2] = 37° C., one hour
[3] = rats, orally, 50 mg/kg, plasmatic metformin

arginine hemisuccinimide-metformin hemisuccinate
release of arginine in rat hepatocyte culture [1]: Slow release of arginine over 24 hours | release of the active principles in intestinal juice [2]: Immediate release of the metformin without modifying the arginine hemisuccinimide part | bioavailable fraction [3]: 75% | concentration peak [3]: 2900 ng/mL | half-life [3]: 2.6 h | time of concentration peak [3]: 60 min | solubility in organic solvents (organic solvents): insoluble in organic solvents | solubility in water (water): soluble in water
